# Yeast mating assay 1: variants of the scFv Ab-14

Reference: Engelhart et al. 2022, doi:10.1038/s41597-022-01779-4. File: FLAb, binding data.

Target: peptide PDVDLGDISGINAS, taken from heptad repeat 2 (HR2) of SARS-CoV-2 spike.

The variants keep the light chain, the linker and the frameworks of Ab-14 (scFv order VH, a 15-residue (Gly4Ser)3 linker, VL).
VH: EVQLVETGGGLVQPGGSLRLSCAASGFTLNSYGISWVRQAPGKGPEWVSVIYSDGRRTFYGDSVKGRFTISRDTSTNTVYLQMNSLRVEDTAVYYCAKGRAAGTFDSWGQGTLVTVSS
VL: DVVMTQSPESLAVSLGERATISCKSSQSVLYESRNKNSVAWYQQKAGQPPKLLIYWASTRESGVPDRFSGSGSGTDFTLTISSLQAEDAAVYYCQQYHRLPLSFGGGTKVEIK

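Phage display of a naive human antibody library on the peptide gave the parent. Library AAYL49 holds single substitutions and randomly drawn double and triple substitutions in the CDRs. Affinity was read by AlphaSeq, a pooled yeast mating assay with surface-displayed partners. Pairs that bind mate more often; barcode pairs of the diploids are counted by sequencing. The ratio of observed to expected reads was calibrated, replicate by replicate, on BCL2-family standards whose Kd was known from biolayer interferometry. The assay was run in three technical replicates.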

Changes read parent residue, position, new residue, counted from the first residue of the VH shown.
All variants listed here change N30 of the VH, counted from its first residue.
The read-out is the apparent dissociation constant on a log10 scale (nM): the lower, the stronger.
Replicates are averaged; those with no signal do not enter the mean.
"ND" means that the variant was in the library but no mating with the target was seen in that replicate; the authors take this as a sign of poor binding, and no number exists.
For reference, the parent read 0.65 as the reference entry and 4.11 (one replicate of three) as a member of this library.
Three control strains display no target. For library AAYL49, 15% of the pairings with them gave a signal, with a median of 4.06 and one signal in twenty below 2.83, so weak values seen in few replicates may be background. For each scFv, signals with the empty controls are counted beside the result.

- G26K/N30Q/S53T: 3.54, 1.70, 2.23 (mean 2.49; controls 0 of 9)
- N30T/T58H/A101Y: ND, ND, ND (controls 0 of 9)
- N30A/G33Y/V64D: ND, ND, ND (controls 0 of 9)
- N30K/V64M: ND, 4.44, 5.81 (mean 5.13; controls 1 of 9)
- N30M/S31W/K65C: 5.35, 5.18, ND (mean 5.27; controls 0 of 9)
- N30H/Y32M: 2.96, 2.15, 3.36 (mean 2.82; controls 2 of 9)
- N30R/Y32I/V64F: 4.86, ND, ND (controls 1 of 9)
- N30C/I51K/D106P: ND, ND, ND (controls 1 of 9)
- G26H/N30S/Y52W: ND, 4.09, 3.76 (mean 3.93; controls 2 of 9)
- N30V/R57Q/S63Y: ND, ND, ND (controls 0 of 9)
- N30A/S31Y/Y32K: ND, ND, ND (controls 1 of 9)
- N30E/F59Q/K65R: 0.95, 1.15, 1.16 (mean 1.09; controls 1 of 9)
- N30S/T104P: ND, ND, ND (controls 1 of 9)
- N30D/G99F/A101G: ND, ND, ND (controls 0 of 9)
- F27W/N30S/R57F: 4.36, 5.27, 5.56 (mean 5.06; controls 7 of 9)
- N30I/V50D/A102Q: 4.50, 3.19, ND (mean 3.84; controls 1 of 9)
- G26H/L29H/N30C: 4.74, ND, 4.74 (mean 4.74; controls 4 of 9)
- N30E/S31A/R100M: 1.66, 1.38, 1.21 (mean 1.41; controls 1 of 9)
- N30R/G33S/D62I: ND, ND, ND (controls 1 of 9)
- N30Q/R57N/D106M: ND, ND, ND (controls 2 of 9)
- N30R/D62P/D106A: ND, ND, ND (controls 0 of 9)
- N30C/F105M: 3.70, 2.70, 3.67 (mean 3.36; controls 4 of 9)
- N30I/S35N/K65S: ND, ND, 5.63 (controls 8 of 9)
- G26N/N30T/A101K: 3.65, 2.84, ND (mean 3.25; controls 4 of 9)
- N30T/V50D/K65R: ND, ND, 5.64 (controls 2 of 9)
- G26Q/N30Y/R57E: ND, ND, ND (controls 0 of 9)
- N30L/G61E/K65A: ND, ND, ND (controls 0 of 9)
- N30Q/I34F/Y60E: ND, 5.02, ND (controls 1 of 9)
- N30F/V50H/S107I: ND, 5.10, ND (controls 2 of 9)
- N30E/S35V/V64I: ND, 4.37, 3.19 (mean 3.78; controls 3 of 9)
- N30V/G33W: ND, ND, ND (controls 0 of 9)
- N30D/Y52N/T58F: 3.90, ND, ND (controls 1 of 9)
- N30I/V50R/G103W: ND, 4.33, ND (controls 0 of 9)
- N30C/G33D/D62V: 5.84, 5.69, 4.70 (mean 5.41; controls 6 of 9)
- T28D/N30G/G33H: ND, 4.36, 2.04 (mean 3.20; controls 0 of 9)
- N30Q/D54I/V64E: ND, ND, ND (controls 0 of 9)
- N30D/G55L/R56E: ND, 3.90, ND (controls 5 of 9)
- N30T/G33D: ND, ND, ND (controls 2 of 9)
- N30S/I51P/R100L: ND, ND, ND (controls 1 of 9)
- N30D: ND, ND, 2.72 (controls 0 of 9)

Picked from the list: the 3 lowest averages where every replicate gave a value.

changes	replicates, log10 nM	log10 Kd (nM), mean	signal with controls
N30E/F59Q/K65R	0.95, 1.15, 1.16	1.09	1 of 9
N30E/S31A/R100M	1.66, 1.38, 1.21	1.41	1 of 9
G26K/N30Q/S53T	3.54, 1.70, 2.23	2.49	0 of 9